According to patent US20260137794A1, “LIGAND-DRUG CONJUGATE AND USE THEREOF” (SYSTIMMUNE, INC., priority 2022, published 2026):

Legend:
Assay type in all cases: cell-based, Human
SK-BR-3 = test: HER2 cell killing experiment by MTS method, SK-BR-3; details: SK-BR-3, HER2 high expression, 5 days
Protocol: (§1) Pharmacodynamic test at cellular level: cell plating was performed on a 96-well plate in a certain density. After the cells adhered to the wall (usually taking at least 4 h), a series of drugs in several folds of dilution were added to each well plate to act for a certain period of time, for killing the cells. At the end of action of the drugs, a certain amount of MTS was added to react at 37° C. under 5% CO2 for 1-4 h. After color development using the MTS reagent, the OD 490 nm absorbance value was detected using a microplate reader, and then the IC50 for cell killing was analyzed and calculated.
(§2) Before addition, according to the concentration of each test sample, a drug (5×mother liquor concentration) was prepared using a preheated 1% FBS culture medium according to the initial concentration of 5.0 μM, and then diluted according to 10 folds of gradient concentration, totaling 8 detection points, followed by standing for later use. During the preparation, each concentration was uniformly mixed using an oscillator, specifically, oscillating for 2-3 sec at a time, with an interval of 1 sec, and then oscillating again, repeating 2-3 times.
(§3) The final concentration of the antibody and the antibody conjugated drug was 0 (Vehicle), 0.6 pM, 4.25 pM, 29.75 pM, 0.21 nM, 1.46 nM, 10.20 nM, 71.43 nM, 500 nM. […]

H1975 = test: HER2 cell killing experiment by MTS method, H1975; details: H1975, HER2 low expression, 5 days
Protocol: as §1, §2, §3

MDA-MB-468 = test: HER2 cell killing experiment by MTS method, MDA-MB-468; details: MDA-MB-468, HER2 negative, 5 days
Protocol: as §1, §2, §3

MDA-MB-453 = test: HER2 cell killing experiment by MTS method, MDA-MB-453; details: MDA-MB-453, HER2 moderate expression, 5 days
Protocol: as §1, §2, §3

Substance: Tras-Ex01 (DAR8)
- IC50 (SK-BR-3): > 500 nM
- IC50 (H1975): 366 nM
- IC50 (MDA-MB-468): 99.2 nM
- IC50 (MDA-MB-453): > 500 nM
